System: S. typhimurium TA98
Test: Antimutagenic assay against BaP (TA98 strain with metabolic activation)
Assay type: cell-based, Salmonella typhimurium
Conditions: TA98 +S9, BaP 10 µg/plate; 1000 µg/plate
Protocol: The antimutagenic assay was performed as previously described; however, in this case, we only used strain TA98, and the test compound in the Salmonella culture was BaP (10 µg/plate) plus the S9 fraction.
The toxicity of the tested agents was assessed by observing background bacterial growth on minimal agar plates due to traces of histidine in the medium.

Q: Which “inhibitory capacity relative to the effect of BaP” value does the source give for `C=CCc1ccc2c(c1)OCO2` [safrole, 5-(2-propenyl)-1,3-benzodioxone] here?
A: Its value is 65%.
